Reference: publication PMC6042076 (Proceedings of the National Academy of Sciences of the …, 2018)

Amino acid sequences for entries named in this document (tags omitted). A change or cut given only in a name is not applied to a line headed by its entry.
UniProt Q9KVG8: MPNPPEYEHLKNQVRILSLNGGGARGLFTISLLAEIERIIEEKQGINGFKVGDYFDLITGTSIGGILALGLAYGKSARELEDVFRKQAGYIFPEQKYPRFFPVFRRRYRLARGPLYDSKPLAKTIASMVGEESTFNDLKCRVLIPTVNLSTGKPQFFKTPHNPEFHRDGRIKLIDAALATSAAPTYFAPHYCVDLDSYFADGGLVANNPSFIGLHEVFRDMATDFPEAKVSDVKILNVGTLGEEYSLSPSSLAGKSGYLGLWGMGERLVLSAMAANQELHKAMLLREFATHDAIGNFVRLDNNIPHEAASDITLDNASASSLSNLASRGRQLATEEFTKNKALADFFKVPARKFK

Experiments:
[1] = biological target: T1, CapV (VC0178; cGAMP-activated phospholipase in Vibrio) (Vibrio cholerae, UniProt Q9KVG8); conditions: 1.6 µM CapV
[2] = biological target: T1, CapV (VC0178; cGAMP-activated phospholipase in Vibrio); test: biochemical

Row | SMILES | lowest concentration giving FP-Rh labeling ([1]; weak activator) [µM] | Kd [2] [µM] | lowest concentration giving FP-Rh labeling ([1]; activator) [µM]
1 | Nc1ncnc2c1ncn2[C@@H]1O[C@@H]2COP(=O)(O)O[C@H]3[C@@H](O)[C@H](n4cnc5c(N)ncnc54)O[C@@H]3COP(=O)(O)O[C@H]2[C@H]1O [c-di-AMP] | 50 |  | 
2 | Nc1nc2c(ncn2[C@@H]2O[C@@H]3COP(=O)(O)O[C@H]4[C@@H](O)[C@H](n5cnc6c(=O)[nH]c(N)nc65)O[C@@H]4COP(=O)(O)O[C@H]3[C@H]2O)c(=O)[nH]1 [c-di-GMP] | 25 |  | 
3 | Nc1nc2c(ncn2[C@@H]2O[C@@H]3COP(=O)(O)O[C@H]4[C@@H](O)[C@H](n5cnc6c(N)ncnc65)O[C@@H]4COP(=O)(O)O[C@H]3[C@H]2O)c(=O)[nH]1 [cGAMP] |  | 8.6 ± 1.9 | 0.05

Read-outs that look alike come from different tables or passages of the source.
